Test results as given in article PMC3150407, “Differential Inhibitor Sensitivity between Human Kinases VRK1 and VRK2” (PLoS ONE, 2011).

Target: T1, human VRK1 (Homo sapiens, UniProt Q99986)
T1 construct: made in house
T1 sequence (Q99986 1-396): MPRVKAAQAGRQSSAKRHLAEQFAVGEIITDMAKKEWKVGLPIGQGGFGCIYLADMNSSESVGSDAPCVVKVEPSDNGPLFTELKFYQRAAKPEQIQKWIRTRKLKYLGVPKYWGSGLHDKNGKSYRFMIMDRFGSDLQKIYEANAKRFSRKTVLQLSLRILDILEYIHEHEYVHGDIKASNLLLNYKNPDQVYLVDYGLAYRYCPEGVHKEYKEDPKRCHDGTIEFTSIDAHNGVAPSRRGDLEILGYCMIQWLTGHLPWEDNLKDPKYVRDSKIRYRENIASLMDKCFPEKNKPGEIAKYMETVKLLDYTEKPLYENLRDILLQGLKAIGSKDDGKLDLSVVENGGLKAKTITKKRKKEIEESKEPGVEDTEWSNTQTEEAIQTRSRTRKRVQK
Test: In vitro kinase assay, VRK1 kinase activity (autophosphorylation and H3 phosphorylation)
Format: biochemical
Conditions: concentration not given

CC[C@H](CO)Nc1nc(NCc2ccccc2)c2ncn(C(C)C)c2n1 [Roscovitine, 2-(R)-(1-Ethyl-2-hydroxyethylamino)-6-benzylamino-9-isopropylpurine]
Effect on VRK1 activity, concentration not stated (in words): not inhibited at much higher concentrations
